Data from US20250019461A1, “HER3 ANTIGEN-BINDING MOLECULES” (Hummingbird Bioscience Pte. Ltd., priority 2018, published 2025).

Assays:
N87 cells [1] = assay: Antibody internalisation by flow cytometry; assay type: cell-based; conditions: 0 min to 4.5 hour
N87 cells [2] = assay: Antibody internalisation, pHrodo iFL Green imaging; assay type: cell-based; conditions: 120 nM antibody, 24 hours

trastuzumab: anti-HER2 antibody trastuzumab
internalisation (N87 cells [1]): substantial internalisation
internalization (N87 cells [2]): modest internalization
